Broadly, the half-life is how long it takes for the measured level to halve.

Chains of the proteins cited; added tags and fusions are not shown. Residues count along the entry.
UniProt P02768, 25-609: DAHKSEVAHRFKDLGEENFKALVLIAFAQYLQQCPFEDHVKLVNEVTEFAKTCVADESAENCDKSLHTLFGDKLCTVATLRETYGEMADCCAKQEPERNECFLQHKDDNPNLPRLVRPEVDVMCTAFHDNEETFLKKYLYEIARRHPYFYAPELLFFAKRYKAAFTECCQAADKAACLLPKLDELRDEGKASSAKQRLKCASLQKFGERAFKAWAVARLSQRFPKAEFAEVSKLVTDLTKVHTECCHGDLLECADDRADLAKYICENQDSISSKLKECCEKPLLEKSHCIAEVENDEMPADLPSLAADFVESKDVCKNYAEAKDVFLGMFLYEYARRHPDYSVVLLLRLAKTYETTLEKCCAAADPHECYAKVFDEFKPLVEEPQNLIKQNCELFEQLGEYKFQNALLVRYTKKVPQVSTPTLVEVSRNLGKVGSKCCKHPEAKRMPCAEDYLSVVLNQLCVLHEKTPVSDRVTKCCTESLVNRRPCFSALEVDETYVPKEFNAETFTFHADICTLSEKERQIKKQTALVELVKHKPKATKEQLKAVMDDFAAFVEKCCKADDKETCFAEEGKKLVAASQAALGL

The nature of data set [1]: Pharmacokinetic study in rats. The format is in vivo, Female Sprague Dawley rats. Particulars: i.v.
The next data set deals with T1, human albumin in serum (Homo sapiens, UniProt P02768).
T1 construct: measuring fluorescence polarization of peptide incubated with human serum that; tissue Sigma-Aldrich H4522; host or cells: human serum
Nature of the data set: Fluorescence polarization albumin binding assay in diluted human serum. The conditions noted are these: read-out: Albumin binding (Kd) Human serum, human albumin concentration of 0.6 mM in serum assumed. The method, then: Forty-five microlitre of the dilutions were added to 15 μl of fluorescent peptide (100 nM) in black 96-well half area microtitre plates. […] The final concentration of fluorescent peptide was 25 nM in all wells. Fluorescence anisotropy was measured with an Infinite M200Pro plate reader (Tecan) using an excitation filter at 485 nm and an emission filter at 535 nm. Dissociation constant (KD) were determined by nonlinear regression analysis of anisotropy versus the total concentration of proteins [P]T using the following equation: […]
A is the experimental fluorescence anisotropy. Af and Ab are the fluorescence anisotropy for the free and the fully bound fluorescent ligand, respectively. [L]T and [P]T represent the total fluorescent ligand and protein concentration, respectively. KD is the dissociation constant for the binding equilibrium. Values were calculated with Prism 5 (GraphPad software).
A general note: Polarisation of emitted light reports the rotation of a fluorescent probe.

For data set [2] the following is noted: once in the blood stream; cited from earlier work.
For another data set, the target named is T2, tag (F)-EYEKpalmEYE (palmitoyl on Lys4 side chain, N-terminal fluorescein).
T2 chain: EYEKEYE
In words: fluorescence polarization.

Setting [3] is: 0.5 mg kg^−1 tagged bicyclic peptides, 0.3 mg kg^−1 UK18, 0.25 mg kg^−1 tag, n=3.

Regarding (F)-EYEKpalmEYE [tag], in data set [1] (setting [3]), the CL is 4 ± 1 mL/h/kg, the VD worked out at 0.074 ± 0.013 L/kg, the “t1/2 α” value is 1.5 ± 0.4 h and the “t1/2 β (elimination half-life)” value turned out to be 12.3 ± 0.4 h. Also, the “degradation in rat blood samples by HPLC analysis (in words)” value in data set [1] (RP-HPLC with fluorescence detection) is recorded as “not degraded”. The Kd at human albumin in serum stood at 0.037 ± 0.002 µM.
For insulin, in data set [2], the half-life was 4 to 6 min.

B1: rat serum albumin (protein)
chain: EAHKSEIAHRFKDLGEQHFKGLVLIAFSQYLQKCPYEEHIKLVQEVTDFAKTCVADENAENCDKSIHTLFGDKLCAIPKLRDNYGELADCCAKQEPERNECFLQHKDDNPNLPPFQRPEAEAMCTSFQENPTSFLGHYLHEVARRHPYFYAPELLYYAEKYNEVLTQCCTESDKAACLTPKLDAVKEKALVAAVRQRMKCSSMQRFGERAFKAWAVARMSQRFPNAEFAEITKLATDVTKINKECCHGDLLECADDRAELAKYMCENQATISSKLQACCDKPVLQKSQCLAEIEHDNIPADLPSIAADFVEDKEVCKNYAEAKDVFLGTFLYEYSRRHPDYSVSLLLRLAKKYEATLEKCCAEGDPPACYGTVLAEFQPLVEEPKNLVKTNCELYEKLGEYGFQNAVLVRYTQKAPQVSTPTLVEAARNLGRVGTKCCTLPEAQRLPCVEDYLSAILNRLCVLHEKTPVSEKVTKCCSGSLVERRPCFSALTVDETYVPKEFKAETFTFHSDICTLPDKEKQIKKQTALAELVKHKPKATEDQLKTVMGDFAQFVDKCCKAADKDNCFATEGPNLVARSKEALA
As for B1, the Kd with tag (F)-EYEKpalmEYE came out at 0.22 µM.

B2: rabbit serum albumin (protein)
chain: EAHKSEIAHRFNDVGEEHFIGLVLITFSQYLQKCPYEEHAKLVKEVTDLAKACVADESAANCDKSLHDIFGDKICALPSLRDTYGDVADCCEKKEPERNECFLHHKDDKPDLPPFARPEADVLCKAFHDDEKAFFGHYLYEVARRHPYFYAPELLYYAQKYKAILTECCEAADKGACLTPKLDALEGKSLISAAQERLRCASIQKFGDRAYKAWALVRLSQRFPKADFTDISKIVTDLTKVHKECCHGDLLECADDRADLAKYMCEHQETISSHLKECCDKPILEKAHCIYGLHNDETPAGLPAVAEEFVEDKDVCKNYEEAKDLFLGKFLYEYSRRHPDYSVVLLLRLGKAYEATLKKCCATDDPHACYAKVLDEFQPLVDEPKNLVKQNCELYEQLGDYNFQNALLVRYTKKVPQVSTPTLVEISRSLGKVGSKCCKHPEAERLPCVEDYLSVVLNRLCVLHEKTPVSEKVTKCCSESLVDRRPCFSALGPDETYVPKEFNAETFTFHADICTLPETERKIKKQTALVELVKHKPHATNDQLKTVVGEFTALLDKCCSAEDKEACFAVEGPKLVESSKATLG
Consider B2, for which the Kd with tag (F)-EYEKpalmEYE was 0.32 µM.

Source of the values: paper PMC5520048 (Nature Communications, 2017).
